Test results taken from patent US20110229472A1 (Amgen, published 2011).

Biological target: T1, Recombinant human MPL (human, UniProt P40238 26-491, limits assumed)
T1 construct: also called hu-mpl; hu-MPL
T1 sequence (looked up): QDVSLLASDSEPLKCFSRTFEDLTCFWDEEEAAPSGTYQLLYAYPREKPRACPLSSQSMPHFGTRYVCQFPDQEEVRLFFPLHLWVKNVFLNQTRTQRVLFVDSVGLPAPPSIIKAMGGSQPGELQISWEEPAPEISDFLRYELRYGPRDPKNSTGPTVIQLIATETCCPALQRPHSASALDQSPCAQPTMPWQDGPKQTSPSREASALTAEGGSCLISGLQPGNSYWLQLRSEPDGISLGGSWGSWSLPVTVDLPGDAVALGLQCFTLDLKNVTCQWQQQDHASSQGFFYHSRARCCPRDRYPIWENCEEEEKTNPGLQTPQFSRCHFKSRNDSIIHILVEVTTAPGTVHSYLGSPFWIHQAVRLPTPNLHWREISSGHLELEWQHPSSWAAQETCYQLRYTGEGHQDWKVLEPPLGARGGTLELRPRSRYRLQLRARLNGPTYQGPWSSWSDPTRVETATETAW
Assay: SPR (BIACORE 3000), hu-mpl amine-coupled on CM5 chip, peptide injected 0.78-100 nM

B1: TMP1 (22-residue benchmark peptide) (peptide)
peptide: SAQGIEGPTLRQWLAARALETV
notes: also called TMP01
In the case of B1, the Kd is reported as 5.4 nM.
